The structures appear in SMILES notation.

By UniProt entry, the sequences of proteins in these tests, tags left out. Where a name states a change or a piece, a line headed by the entry shows the natural chain unless it says otherwise.
UniProt Q9QYN8: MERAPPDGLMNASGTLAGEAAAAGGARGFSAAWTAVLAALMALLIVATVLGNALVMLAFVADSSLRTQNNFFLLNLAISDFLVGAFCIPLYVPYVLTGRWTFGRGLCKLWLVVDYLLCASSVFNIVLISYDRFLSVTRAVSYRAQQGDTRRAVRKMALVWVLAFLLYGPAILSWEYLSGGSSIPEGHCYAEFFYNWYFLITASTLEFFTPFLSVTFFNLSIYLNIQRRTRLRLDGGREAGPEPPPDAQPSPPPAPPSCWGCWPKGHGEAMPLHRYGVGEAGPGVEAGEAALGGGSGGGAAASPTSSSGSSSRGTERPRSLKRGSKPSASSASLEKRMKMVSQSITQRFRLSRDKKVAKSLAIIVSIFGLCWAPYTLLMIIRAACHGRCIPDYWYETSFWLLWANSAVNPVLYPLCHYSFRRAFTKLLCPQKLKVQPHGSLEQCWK

What is called Ki is a measure of affinity in units of concentration, obtained from inhibition or displacement. High values mean a looser hold on the target, low ones a stronger hold on the target.

The test addresses Histamine H3 receptor (Rattus norvegicus, UniProt Q9QYN8). The experiment in a line: Binding potency was determined by displacement of [3H]N-alpha-methyl histamine from histamine H3 receptor of rat cortical membranes. It is filed as cell membranes, Membrane.

In the case of `CC1CCCN1CCc1cc2cc(-c3ccc(C#N)cc3)ccc2o1` (configuration not stated), the affinity, expressed as Ki, was 6.5 nM. The same measure for `C[C@@H]1CCCN1CCc1cc2cc(-c3ccc(C#N)cc3)ccc2o1`: 3.22 nM.

The values are drawn from ChEMBL document CHEMBL1147428, “A new class of potent non-imidazole H(3) antagonists: 2-aminoethylbenzofurans” (Bioorg Med Chem Lett, 2004).
